Measured values as given in patent US20100234377A1 (priority 2007, published 2010).

Sequences of proteins named here, by UniProt entry; tags and fusion partners are left off.
UniProt O60760, whole entry: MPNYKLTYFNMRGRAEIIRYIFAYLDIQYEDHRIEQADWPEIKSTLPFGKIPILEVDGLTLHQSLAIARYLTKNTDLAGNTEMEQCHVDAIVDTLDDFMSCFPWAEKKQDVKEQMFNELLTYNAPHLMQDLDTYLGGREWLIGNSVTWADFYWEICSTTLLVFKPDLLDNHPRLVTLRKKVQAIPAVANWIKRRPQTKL

Biological target: human Prostaglandin D Synthase (GST2) (Homo sapiens, UniProt O60760)
Experiment: Homogeneous biochemical assay of human Prostaglandin D Synthase (GST2) based on its glutathion-S-transferase activity (GSH conjugation to monochlorobimane, fluorescence)
Settings: read-out: GST2 inhibition IC50; Table 2; comparative examples

Question: With `O=C(Nc1cccc(C(=O)N2CCN(C(=O)Nc3ccc(F)cc3)CC2)c1)c1ccccc1` as the compound, how does the IC50 read?
Answer: Its IC50 is 16.2 µM.
